For data set [1], the target named is T1, CCR5 (Homo sapiens, UniProt P51681).
T1 construct: endogenous in cells
In words: CCL5^AF647 chemokine binding inhibition assay in PBMCs. As to conditions: AF647-labelled CCL5 in PBMCs; mean ± SEM; read-out: Competition Binding Assay IC50 CCL5. The protocol:
Human PBMCs were washed once with assay buffer (Hanks’ balanced salt solution with 20 mM HEPES buffer and 0.2% bovine serum albumin, pH 7.4) and then incubated for 15 min at room temperature with the sample diluted in assay buffer at the indicated concentrations. Subsequently, CXCL12^AF647 (25 ng/mL) or CCL5^AF647 (50 ng/mL) was added to the compound-incubated cells. The cells were incubated for 30 min at room temperature. Thereafter, the cells were washed twice in assay buffer, fixed in 1% paraformaldehyde in PBS, and analysed on the FL4 channel of a FACSCalibur flow cytometer equipped with a 635 nm red diode laser (Becton Dickinson, San Jose, CA, USA). The percentage of inhibition of CXCL12^AF647 or CCL5^AF647 binding was calculated according to the formula: [1 − ((MFI − MFINC)/(MFIPC − MFINC))] × 100, where MFI is the mean fluorescence intensity of the cells incubated with CXCL12^AF647 or CCL5^AF647 in the presence of the inhibitor, MFINC is the mean fluorescence intensity measured in the negative control (i.e., autofluorescence of unlabelled cells), and MFIPC is the mean fluorescence intensity of the positive control (i.e., cells exposed to CXCL12^AF647 or CCL5^AF647 alone).
Binding affinity and selectivity towards CXCR4 were further evaluated through competition binding assays using natural chemokine ligands, tagged with Alexa Fluor 647, as previously reported. […]

Protein sequences, listed by entry. Tags and fused reporters are not part of them.
UniProt P51681, whole entry: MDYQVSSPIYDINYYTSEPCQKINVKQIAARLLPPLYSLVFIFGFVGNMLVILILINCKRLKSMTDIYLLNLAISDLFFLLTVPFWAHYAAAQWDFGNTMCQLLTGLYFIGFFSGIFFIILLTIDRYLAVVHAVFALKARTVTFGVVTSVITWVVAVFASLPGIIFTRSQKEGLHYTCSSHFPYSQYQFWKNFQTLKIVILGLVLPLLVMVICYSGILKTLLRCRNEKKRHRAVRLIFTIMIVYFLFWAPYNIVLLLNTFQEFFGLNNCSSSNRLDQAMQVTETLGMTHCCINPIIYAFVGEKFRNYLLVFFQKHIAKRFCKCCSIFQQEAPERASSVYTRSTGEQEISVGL

Data set [2] addresses T1, CCR5. In words: CCL3L1-induced intracellular calcium mobilisation in CCR5-transfected U87 cells (FLIPR). Type of data set: cell-based. The following applies: mean ± SEM, read-out: Ca^2+ Signalling Assay IC50 CCL3L1. The protocol:
CXCR4- or CCR5-positive U87 glioblastoma/astrocytoma cells were loaded with the fluorescent calcium indicator Fluo-3 acetoxymethyl (Molecular Probes) at 4 µM in the assay buffer (Hanks’ balanced salt solution with 20 mM HEPES buffer and 0.2% bovine serum albumin, pH 7.4) for 45 min at room temperature. After thorough washing with the assay buffer, cells were pre-incubated for 10 min at 37 °C in the same buffer with the compounds of interest. The intracellular calcium mobilisation in response to CXCL12 (CXCR4 chemokine ligand) or CCL3L1 (CCR5 chemokine ligand) was then measured at 37 °C by monitoring the fluorescence as a function of time simultaneously in all the wells by using a fluorometric imaging plate reader (FLIPR; Molecular Devices, Sunnyvale, CA, USA).
The potency of the different metal complexes was investigated in a functional downstream receptor signalling assay. The inhibitory effect of the tested compounds was examined by Ca^2+ mobilisation studies with the natural ligands CXCL12 and CCL3L1 for the chemokine receptors CXCR4 and CCR5, respectively. The Ca^2+ ions released from the endoplasmic reticulum were measured over time in CXCR4- or CCR5-transfected U87 glioblastoma cells via their specific interaction with the fluorescent Ca^2+ indicator Fluo-3 [63].

In another data set the test system is PHA-stimulated PBMCs. Kind of data set: Cellular cytotoxicity, microscopic evaluation and MTS assay. As to conditions: 48 h, MTS, read-out: Toxicity CC50 PMBCs. The class given is cell-based, human. An excerpt: Buffy coat preparations from healthy donors were obtained from the Blood Bank in Leuven, Belgium. For the chemokine binding studies, peripheral blood mononuclear cells (PBMCs) activated with phytohemagglutinin (PHA; Sigma, Belgium) were used. Human T-lymphocytic SUP-T1 cells and TZM-bl cells were obtained from the American Type Culture Collection (Rockville, MD) and maintained in RPMI-1640 supplemented with 10% foetal bovine serum (FBS). Human glioblastoma U87.MG and U87.CD4 cells were kindly provided by Dr. D. Littman and used to generate cells expressing CXCR4 or CCR5 [48]. The fluorescent chemokines CXCL12^AF647 and CCL5^AF647 were purchased from Almac. […]
Cytotoxicity of the compounds was evaluated after 48 h of incubation at 37 °C in PHA-stimulated PBMCs (5 × 10^5 cells per well in culture medium). […] Cytotoxicity was evaluated microscopically, and in addition, the cell viability was assessed using the colorimetric CellTiter 96 AQueous One Solution Cell Proliferation Assay (Promega, Fitchburg, WI, USA), which is based on the reduction of the tetrazolium salt MTS [3-(4,5-dimethylthiazol-2-yl)-5-(3-carboxymethoxyphenyl)-2-(4-sulfophenyl)-2H-tetrazolium] to formazan by metabolically active cells. Absorbance at 490 nm was measured with the Versa-Max ELISA microplate reader (Molecular Devices, Sunnyvale, CA, USA). […]
Background: Formazan colour is commonly taken as a measure of viable cells.

Data on one substance can be found in PMC11360128, “Rigid Macrocycle Metal Complexes as CXCR4 Chemokine Receptor Antagonists: Influence of Ring Size” (Pharmaceutics, 2024).

Some results are limits rather than exact numbers.

What is called IC50 is the concentration at which inhibition is half-maximal. For orientation: CC50 means the concentration that lowers cell viability or growth by half.

On to Maraviroc [reference compound], for which the IC50 on CCR5 [1] came out at 10.3 ± 3.5 nM; at CCR5 [2], 3.1 ± 0.6 nM. Moreover, the cytotoxic concentration (CC50) in the data set with PHA-stimulated PBMCs is not below 100000 nM.
